Experimental data reported in US20240158386A1, “BENZOXAZOLONE INHIBITORS OF INFLAMMASOMES” (ICAHN SCHOOL OF MEDICINE AT MOUNT SINAI, priority 2021, published 2024).
pIC50: −log10 of the molar value. Where “and” joins values, the source holds several entries; their conditions need not be identical. Equal entries are not always repeated.

Protein sequences, listed by entry. Tags and fused reporters are not part of them.
UniProt Q8R4B8, whole entry: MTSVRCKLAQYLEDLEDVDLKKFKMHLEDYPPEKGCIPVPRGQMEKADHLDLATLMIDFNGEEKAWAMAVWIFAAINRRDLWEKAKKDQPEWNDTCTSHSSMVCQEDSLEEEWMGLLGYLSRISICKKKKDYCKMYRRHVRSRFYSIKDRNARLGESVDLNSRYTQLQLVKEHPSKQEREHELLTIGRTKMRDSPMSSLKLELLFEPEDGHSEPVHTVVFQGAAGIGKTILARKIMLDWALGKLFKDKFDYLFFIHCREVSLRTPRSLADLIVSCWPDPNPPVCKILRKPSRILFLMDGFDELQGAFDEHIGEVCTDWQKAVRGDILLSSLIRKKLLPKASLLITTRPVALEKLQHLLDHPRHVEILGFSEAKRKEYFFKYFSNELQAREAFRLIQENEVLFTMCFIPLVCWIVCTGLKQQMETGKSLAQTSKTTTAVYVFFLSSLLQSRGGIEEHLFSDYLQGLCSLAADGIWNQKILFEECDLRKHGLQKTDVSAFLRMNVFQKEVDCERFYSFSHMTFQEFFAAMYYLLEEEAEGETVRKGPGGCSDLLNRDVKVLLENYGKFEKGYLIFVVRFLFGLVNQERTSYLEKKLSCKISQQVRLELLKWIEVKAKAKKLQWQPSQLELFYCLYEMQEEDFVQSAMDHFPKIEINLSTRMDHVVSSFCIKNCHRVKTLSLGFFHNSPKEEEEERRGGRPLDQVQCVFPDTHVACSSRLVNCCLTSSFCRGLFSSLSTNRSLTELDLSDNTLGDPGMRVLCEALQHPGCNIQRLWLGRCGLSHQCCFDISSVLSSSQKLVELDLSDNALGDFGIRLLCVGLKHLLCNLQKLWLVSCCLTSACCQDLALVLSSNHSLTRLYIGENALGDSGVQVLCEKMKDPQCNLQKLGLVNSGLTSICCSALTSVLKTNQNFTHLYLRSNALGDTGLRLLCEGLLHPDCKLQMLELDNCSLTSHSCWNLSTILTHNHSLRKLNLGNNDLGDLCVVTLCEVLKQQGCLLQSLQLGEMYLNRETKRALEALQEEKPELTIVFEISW
UniProt Q3UP24, whole entry: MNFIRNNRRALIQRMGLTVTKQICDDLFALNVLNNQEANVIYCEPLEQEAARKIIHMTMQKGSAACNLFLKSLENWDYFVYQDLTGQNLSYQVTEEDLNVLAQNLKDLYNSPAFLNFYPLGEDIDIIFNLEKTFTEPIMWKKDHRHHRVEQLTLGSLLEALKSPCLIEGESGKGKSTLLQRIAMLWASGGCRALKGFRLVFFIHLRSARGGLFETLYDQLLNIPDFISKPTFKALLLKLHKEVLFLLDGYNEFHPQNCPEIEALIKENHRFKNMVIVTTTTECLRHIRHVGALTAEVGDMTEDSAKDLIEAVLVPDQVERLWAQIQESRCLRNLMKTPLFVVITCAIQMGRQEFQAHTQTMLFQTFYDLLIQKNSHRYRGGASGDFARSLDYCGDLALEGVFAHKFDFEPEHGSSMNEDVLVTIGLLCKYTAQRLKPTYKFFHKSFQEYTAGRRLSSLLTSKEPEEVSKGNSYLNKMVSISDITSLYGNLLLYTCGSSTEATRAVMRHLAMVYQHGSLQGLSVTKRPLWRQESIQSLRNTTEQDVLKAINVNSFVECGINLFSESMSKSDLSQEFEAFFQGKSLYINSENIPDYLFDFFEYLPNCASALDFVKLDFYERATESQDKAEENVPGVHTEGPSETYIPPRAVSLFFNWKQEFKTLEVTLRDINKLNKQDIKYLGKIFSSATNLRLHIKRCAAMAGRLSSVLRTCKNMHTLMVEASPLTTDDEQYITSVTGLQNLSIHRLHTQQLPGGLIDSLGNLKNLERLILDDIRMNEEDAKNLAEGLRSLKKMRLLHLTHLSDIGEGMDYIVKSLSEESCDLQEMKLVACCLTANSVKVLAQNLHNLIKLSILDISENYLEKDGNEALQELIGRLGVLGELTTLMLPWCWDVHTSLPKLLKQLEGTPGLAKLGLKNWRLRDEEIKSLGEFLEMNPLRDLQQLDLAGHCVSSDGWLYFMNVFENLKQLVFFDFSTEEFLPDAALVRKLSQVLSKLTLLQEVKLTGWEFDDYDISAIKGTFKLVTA

How the values were obtained:
NLRP3 inflammasome = NLRP3 inflammasome (Mus musculus, UniProt Q8R4B8); assay: NLRP3 inflammasome activation assay: IL-1β release by primary microglia after LPS and ATP; settings: for inhibition of IL-1β release upon NLRP3 activation: 100 μM compound; for inhibition of IL-1β release upon NLRP3 activation / pIC50: microglia, LPS and ATP; for pIC50: IL-1β release, nonlinear fit of dose-response
Experimental: Murine primary microglia. Mixed cortical cultures were prepared as previously described (Bronstein, R. et al. J. Vis. Exp. JoVE 50647 (2013) doi:10.3791/50647). Briefly, cortices from 2-3 days old, WT, or NLRP3 KO pups were isolated, digested, and seeded at a density of 8 cortices per 10 ml petri dish. Every three days, the medium was replaced by fresh culture medium (DMEM, 10% FBS, 1% penicillin-streptomycin). After three weeks, mixed glial cultures had reached confluence, and microglia cells were isolated by mild trypsinization as previously described (Saura, J. et al. Glia 44, 183-189 (2003)). In brief, cells were washed with culture medium without FBS and treated with a mixture of trypsin 0.25% (without EDTA) and DMEM-F12 medium in a 1:3 proportion. After an incubation period of approximately 40 min, an intact layer of mixed glial cells detached, leaving microglia attached firmly to the bottom of the Petri-dish. Pure microglia were then isolated by 15 min incubation with trypsin (0.05%)-EDTA at 37° C., followed by gentle shaking. Cells were counted and seeded at the desired density, typically 7.5·10^4 cells/well in 24 well-plates.
(§1) NLRP3 inflammasome activation assay. Primary microglia cultures were incubated with the compounds that inhibited IL-1β production in THP1 macrophages. Cells pretreated with 100 μM of the compounds—or with the same DMSO volume, in the case of control samples—were primed with 400 ng/ml LPS for 3 hours, and activated with 4.5 mM ATP for 45 minutes or […] nigericin for 1 hour. Dose-response curves were conducted by incubating microglia cultures with different concentrations of the selected compounds, ranging from 0.001 to 100 μM, 1 hour before NLRP3 activation with LPS and ATP. Supernatants were collected for IL-1β and toxicity assessments.
Cytokine quantification. IL-1β in cell supernatants and brain tissue samples—after the different treatment groups—was quantified using the Mouse IL-1 beta/IL-1F2 DuoSet ELISA kit (R&D systems), IL-6 in cell culture supernatant was measured through the Mouse IL-6 ELISA kit (ThermoFisher), TNF-α in cell culture supernatants was determined using the Mouse TNF-alpha DuoSet ELISA (R*D systems), and IL-18 in brain tissue was measured through the IL-18 Mouse ELISA Kit (Invitrogen) following the manufacturers' recommended protocol. IL-1β precursor and cleaved IL-1β in the FC of mice treated with vehicles, LPS, or C77-LPS was assessed by western blot. All samples were run in technical duplicates.

NLRC4 inflammasome = NLRC4 inflammasome (Mus musculus, UniProt Q3UP24); assay: NLRC4 inflammasome activation assay: IL-1β release, microglia from NLRP3 KO mice, LPS and flagellin; settings: 10 μM
Experimental: AIM2, NLRP7, and NLRC4 inflammasomes activation assays. […] AIM2 inflammasome activation was induced through the addition of 100 ng/ml LPS for 2 hours, followed by transfection of 1 μg poly(dA:dT) using Lipofectamine 2000 during 2 hours, following the manufacturer recommendations. NLRC4 was activated by treatment with 150 ng/ml LPS for 2 hours, before transfection of 1 μg flagellin during 2 hours, using lipofectamine 2000 as transfection reagent. Negative and positive controls were pre-treated with the same DMSO percentage as cells treated with the inhibitors. Negative controls were kept untreated after DMSO addition, while LPS-poly(dA:dT) or LPS-flagellin was added to positive controls for AIM2, and NLRC4 activation, respectively. For activation of the NLRP7 inflammasome different conditions were assessed: treatment of WT microglia cultures with 400 ng/ml fibroblast-stimulating lipopeptide-1 (fsl-1) for 7 hours, priming with 150 ng/ml LPS for 1 hour and treatment with 400 ng/ml fsl-1 for 7 hours, and priming with 150 ng/ml LPS and transfection of 400 ng/ml fsl-1 with lipofectamine. MCC950 was used as a negative control for NLRC4 and AIM-2 inhibition. […]
Cytokine quantification. […] IL-1β precursor and cleaved IL-1β in the FC of mice treated with vehicles, LPS, or C77-LPS was assessed by western blot. […]

[1] = tested on: ASC specks following NLRP3 activation; assay: ASC speck formation / ASC oligomerization in m-Cerulean ASC labeled macrophages; settings: 10 μM pretreatment, LPS and ATP, compared with DMSO-treated cells
Experimental: m-Cerulean ASC labeled macrophages. NLRP3 Knock Out immortalized murine macrophages, stably expressing m-Cerulean-ASC, and NLRP3-Flag were a kind donation of Prof. Eicke Latz, (Institute of Innate Immunity, University of Bonn, Germany). Murine macrophages were maintained in high glucose DMEM medium supplemented with 10% FBS, 1% sodium pyruvate, and passaged every 2-3 days, before reaching confluence.
For ASC speck formation evaluation, murine macrophages were seeded in 96 well SCREENSTAR black microplates with clear base, 24 hours before stimulation. […] Cells were then fixed and counterstained in a single step, as previously described (Stutz, A. et al. ASC Speck Formation as a Readout for Inflammasome Activation. in The Inflammasome (eds. De Nardo, C. M. & Latz, E.) vol. 1040 91-101 (Humana Press, 2013).). […]
ASC oligomerization determination. […] ASC specks in cells pretreated with C75, C77, C78, and C97, before NLRP3 activation (as above indicated), were visualized with a widefield Leica DMi8 fluorescence microscope, using the 20× objective. […] For image analysis and speck quantification, ImageJ was used https://imagej.nih.gov/ij/index.html. Speck and nuclei quantification was performed as previously described in Stutz et al. When required (overlapping nuclei), the watershed separation algorithm was used to separate the particles. […]

[2] = tested on: primary microglial cultures; assay: Pyroptosis measurement (LDH release) in primary microglial cultures; settings: primary microglia, LPS and ATP
Experimental: Pyroptosis measurement. The ability of C75, C77, C78, and C97 to inhibit pyroptosis was determined by measuring the LDH released by pyroptotic cells into the culture medium. 350 ng/ml LPS was added to primary microglial cultures pre-treated with different concentrations of the inhibitors. After 3 hours of treatment, pyroptosis was induced through the addition of 4.5 mM ATP, for 45 min. Cell supernatants were collected for LDH assessment, using the Cyto Tox 96® NonRadioactive Cytotoxicity Assay (Promega), following manufacturer the recommendations.

microglia cultures = assay: Cell viability assay (CytoTox 96 cytotoxicity); settings: 100 μM
Experimental: as §1
Cell viability assays. The cytotoxic effect of the compounds identified by in-vitro screening was assayed with the Cyto Tox 96® NonRadioactive Cytotoxicity Assay (Promega), following the recommendations of the manufacturer.

| pIC50 (NLRP3 inflammasome) | % Residual activity (percentage of IL-1β, referred to control) (NLRP3 inflammasome; microglia cultures pretreated with 100 μM compound before NLRP3 activation with LPS and ATP) | inhibition of NLRC4-mediated IL-1β production (NLRC4 inflammasome) | Compound | inhibition of IL-1β release upon NLRP3 activation (NLRP3 inflammasome) | rate of ASC speck positive cells [1] | concentrations inhibiting pyroptosis [2] | cytotoxicity (microglia cultures) |
| --- | --- | --- | --- | --- | --- | --- | --- |
| 4.34 | – | – | Cc1cnn(CC2CCN(C(=O)Cn3c(=O)oc4ccccc43)C2)c1 (stereo not drawn) | inhibited NLRP3 with statistical significance | – | – | – |
| 4.45 | – | – | O=C(Cn1c(=O)oc2ccccc21)NCCn1ccc(C(F)(F)F)n1 | inhibited NLRP3 with statistical significance | – | – | – |
| 5.00 and 4.95 | 0% | specific for NLRP3 | O=c1[nH]nc(-c2ccc(OCc3ccc(F)cc3)cc2)o1 | – | significantly reduced | higher C97 concentrations were needed | exerted some toxicity |
| 4.06 | – | – | O=C(Cn1c(=O)oc2ccccc21)NCCn1ccc(-c2ccccc2)n1 | inhibited NLRP3 with statistical significance | – | – | – |
